IC50 data for one compound are collected here from BindingDB's records for US9556117.

Protein sequences, listed by entry. Tags and fused reporters are not part of them. Lines headed by an entry give the natural chain unless they say otherwise; changes in a name come on top.
UniProt Q99572, whole entry: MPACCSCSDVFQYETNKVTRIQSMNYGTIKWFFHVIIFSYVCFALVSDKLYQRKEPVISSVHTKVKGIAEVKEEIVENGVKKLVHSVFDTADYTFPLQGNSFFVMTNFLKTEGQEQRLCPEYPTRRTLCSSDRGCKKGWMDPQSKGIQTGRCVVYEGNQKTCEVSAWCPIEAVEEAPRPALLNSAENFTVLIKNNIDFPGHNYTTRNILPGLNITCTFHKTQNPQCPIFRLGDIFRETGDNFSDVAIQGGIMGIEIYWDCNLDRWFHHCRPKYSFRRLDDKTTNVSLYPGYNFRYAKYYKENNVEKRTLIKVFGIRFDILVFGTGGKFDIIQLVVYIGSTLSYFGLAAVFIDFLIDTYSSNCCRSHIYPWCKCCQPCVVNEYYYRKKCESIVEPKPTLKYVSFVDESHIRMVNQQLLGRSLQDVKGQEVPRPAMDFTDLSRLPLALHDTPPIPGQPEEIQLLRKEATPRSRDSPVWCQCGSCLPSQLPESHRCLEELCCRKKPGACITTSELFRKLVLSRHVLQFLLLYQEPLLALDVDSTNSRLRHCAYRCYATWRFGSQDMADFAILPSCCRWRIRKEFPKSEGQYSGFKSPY

In general, IC50 refers to the concentration that gives 50% inhibition. Higher therefore signals weaker potency.

Only a part of the results on these compounds is given; other tests are left out.

For the assay, the target named is P2X purinoceptor 7 (Homo sapiens, UniProt Q99572).

`CN(C)C1(CNC(=O)c2ccc3[nH]ccc3c2Cl)CCCCC1`: the IC50 is 1.08 µM.
